Reference: patent US11718827

Amino acid sequences for entries named in this document (tags omitted). Residues count along the entry.
UniProt Q15116, 25-288 limits assumed: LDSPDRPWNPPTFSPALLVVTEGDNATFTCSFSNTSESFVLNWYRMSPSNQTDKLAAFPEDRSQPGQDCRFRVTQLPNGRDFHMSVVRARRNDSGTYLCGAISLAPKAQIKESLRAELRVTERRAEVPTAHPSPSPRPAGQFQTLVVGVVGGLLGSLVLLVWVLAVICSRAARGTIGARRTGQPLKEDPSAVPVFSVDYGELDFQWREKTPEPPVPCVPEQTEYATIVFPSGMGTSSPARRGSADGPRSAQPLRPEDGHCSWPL

Target: PD-1 (UniProt Q15116)
Test: flow cytometry of cells incubated with 150 µg/mL fluorescently labelled antibody in PBS

percent of cells blocked: 90%
Substance: monoclonal antibody Keytruda
